Experimental data: PMC6608569 (Bioorganic & medicinal chemistry letters, 2019)

Test system: HCT116 cells
Experiment: Autophagy markers
Format: cell-based
Conditions: 2, 10, and 50 μM, 16 hours, immunoblot

`Oc1c(Cl)cc(Cl)c(Cl)c1Cc1c(O)c(Cl)cc(Cl)c1Cl` [hexachlorophene] was tested, and the “levels of autophagy markers p62, LC3-I, LC3-II relative to DMSO” value was “decreased the levels of p62 and LC3-I while increasing the levels of LC3-II”.
